Results published in BindingDB's records for doi:10.1124/jpet.103.061754 (Johnson & Johnson Pharmaceutical, 2004).

By UniProt entry, the sequences of proteins in these tests, tags left out. Where a name states a change or a piece, a line headed by the entry shows the natural chain unless it says otherwise.
UniProt Q9QYN8: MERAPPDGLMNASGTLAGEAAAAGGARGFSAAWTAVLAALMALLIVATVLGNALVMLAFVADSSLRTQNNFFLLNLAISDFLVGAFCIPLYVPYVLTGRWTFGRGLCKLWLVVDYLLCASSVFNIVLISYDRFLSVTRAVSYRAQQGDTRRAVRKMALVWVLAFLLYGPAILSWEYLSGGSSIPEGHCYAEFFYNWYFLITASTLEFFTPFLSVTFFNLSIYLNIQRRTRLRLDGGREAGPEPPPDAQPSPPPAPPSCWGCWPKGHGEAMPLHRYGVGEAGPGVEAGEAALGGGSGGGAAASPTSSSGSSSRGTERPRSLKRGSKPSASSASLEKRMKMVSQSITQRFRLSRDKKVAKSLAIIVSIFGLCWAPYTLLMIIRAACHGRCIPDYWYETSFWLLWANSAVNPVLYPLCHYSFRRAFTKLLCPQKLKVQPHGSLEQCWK

Target: Histamine H3 receptor (Rattus norvegicus, UniProt Q9QYN8)

Ki: 4.7 µM
Structure (SMILES): CN1CCN(C(=O)c2cc3cc(Cl)ccc3[nH]2)CC1
